From PubChem BioAssay AID602261 (Sanford-Burnham Center for Chemical Genomics, 2012)
The entries are a selection whose mix differs from that of the whole data set. Activity calls are given as the source filed them.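 Rule for the calls: active = compounds whose normalised, plate-corrected inhibition of enzyme fluorescence in the single-dose primary screen is 50% or more; inactive = the rest.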

The chains behind the UniProt entries cited, without tags or fusion partners.
UniProt P49327, whole entry, looked up: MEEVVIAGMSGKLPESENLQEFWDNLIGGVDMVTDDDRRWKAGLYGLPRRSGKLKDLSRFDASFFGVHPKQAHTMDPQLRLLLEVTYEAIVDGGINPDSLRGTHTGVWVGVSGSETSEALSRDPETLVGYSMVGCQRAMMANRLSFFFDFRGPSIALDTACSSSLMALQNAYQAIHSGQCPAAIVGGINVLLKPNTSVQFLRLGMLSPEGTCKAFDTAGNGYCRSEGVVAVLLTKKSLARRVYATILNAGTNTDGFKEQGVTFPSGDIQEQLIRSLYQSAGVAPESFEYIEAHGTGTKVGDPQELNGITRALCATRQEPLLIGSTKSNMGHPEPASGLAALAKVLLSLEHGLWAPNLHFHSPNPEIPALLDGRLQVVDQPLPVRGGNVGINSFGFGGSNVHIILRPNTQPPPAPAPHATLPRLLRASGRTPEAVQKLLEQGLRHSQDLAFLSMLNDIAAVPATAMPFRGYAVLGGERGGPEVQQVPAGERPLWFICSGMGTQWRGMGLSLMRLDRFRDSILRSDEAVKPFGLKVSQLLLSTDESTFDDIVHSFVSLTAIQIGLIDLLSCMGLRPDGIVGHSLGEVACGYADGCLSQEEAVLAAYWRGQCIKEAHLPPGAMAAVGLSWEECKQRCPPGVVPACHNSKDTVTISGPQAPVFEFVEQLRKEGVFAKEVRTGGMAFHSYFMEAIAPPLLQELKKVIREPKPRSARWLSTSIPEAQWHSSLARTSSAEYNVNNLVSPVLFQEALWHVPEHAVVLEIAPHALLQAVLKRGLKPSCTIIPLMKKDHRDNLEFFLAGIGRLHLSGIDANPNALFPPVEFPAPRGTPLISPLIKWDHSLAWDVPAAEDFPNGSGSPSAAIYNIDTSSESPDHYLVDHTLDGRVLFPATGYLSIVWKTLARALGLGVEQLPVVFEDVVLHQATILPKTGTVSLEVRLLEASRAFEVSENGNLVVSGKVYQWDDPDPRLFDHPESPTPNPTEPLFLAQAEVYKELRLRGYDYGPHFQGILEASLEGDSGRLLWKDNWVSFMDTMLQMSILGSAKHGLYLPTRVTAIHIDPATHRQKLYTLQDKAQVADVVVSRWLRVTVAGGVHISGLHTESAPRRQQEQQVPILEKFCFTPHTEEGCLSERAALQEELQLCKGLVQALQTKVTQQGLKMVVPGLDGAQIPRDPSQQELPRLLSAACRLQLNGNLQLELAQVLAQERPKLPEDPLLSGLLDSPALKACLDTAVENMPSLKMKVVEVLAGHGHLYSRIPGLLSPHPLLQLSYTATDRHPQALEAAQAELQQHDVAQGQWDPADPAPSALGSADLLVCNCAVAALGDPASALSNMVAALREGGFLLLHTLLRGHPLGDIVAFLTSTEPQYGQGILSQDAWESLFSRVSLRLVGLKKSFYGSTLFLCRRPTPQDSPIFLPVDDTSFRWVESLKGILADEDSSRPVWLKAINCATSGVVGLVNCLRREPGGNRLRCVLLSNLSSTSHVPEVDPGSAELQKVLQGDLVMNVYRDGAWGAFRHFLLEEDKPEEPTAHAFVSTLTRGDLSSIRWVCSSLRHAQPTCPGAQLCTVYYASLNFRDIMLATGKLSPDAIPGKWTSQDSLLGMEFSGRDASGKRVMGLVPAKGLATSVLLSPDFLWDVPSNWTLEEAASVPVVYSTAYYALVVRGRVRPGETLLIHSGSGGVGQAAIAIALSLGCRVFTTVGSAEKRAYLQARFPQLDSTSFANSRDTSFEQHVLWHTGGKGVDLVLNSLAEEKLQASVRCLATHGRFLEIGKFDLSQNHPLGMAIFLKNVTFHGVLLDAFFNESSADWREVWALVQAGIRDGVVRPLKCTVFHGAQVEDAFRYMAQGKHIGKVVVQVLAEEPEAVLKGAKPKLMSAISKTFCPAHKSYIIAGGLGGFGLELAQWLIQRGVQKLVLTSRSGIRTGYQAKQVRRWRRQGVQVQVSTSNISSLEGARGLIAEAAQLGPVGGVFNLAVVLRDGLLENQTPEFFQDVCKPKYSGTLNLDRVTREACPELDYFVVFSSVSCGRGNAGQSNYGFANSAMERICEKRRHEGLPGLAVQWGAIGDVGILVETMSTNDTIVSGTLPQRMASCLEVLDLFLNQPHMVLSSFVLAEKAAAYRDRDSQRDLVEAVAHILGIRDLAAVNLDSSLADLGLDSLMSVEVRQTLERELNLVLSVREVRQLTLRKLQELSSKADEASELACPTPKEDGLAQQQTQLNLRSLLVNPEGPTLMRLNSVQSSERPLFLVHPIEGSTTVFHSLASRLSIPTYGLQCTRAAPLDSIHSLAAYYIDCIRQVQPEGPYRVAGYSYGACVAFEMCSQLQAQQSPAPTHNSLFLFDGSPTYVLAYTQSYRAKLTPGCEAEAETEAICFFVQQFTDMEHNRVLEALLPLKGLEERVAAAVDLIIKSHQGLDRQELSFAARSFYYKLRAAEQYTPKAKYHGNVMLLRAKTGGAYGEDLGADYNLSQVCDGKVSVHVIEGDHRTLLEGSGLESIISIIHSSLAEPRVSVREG

Each molecule was assayed against Fatty acid synthase (Homo sapiens) (UniProt P49327) (assay: FAS thioesterase domain inhibitors, primary screen, biochemical, fluorescence intensity, uHTS (AID 602261;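 note: 0% = DMSO with enzyme and 100% = substrate without enzyme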)). Conditions: recombinant FAS-TE, OMFH fluorogenic substrate, fluorescence endpoint; at 15 µM; stronger effect = higher value.

| Structure (SMILES) | inhibition |
| --- | --- |
| O=P(Nc1nccs1)(c1ccccc1)c1ccccc1 | inactive: -8.4% |
| CC(C)C(=O)NC(Sc1ccccc1)C(Cl)(Cl)Cl (stereo not drawn) | inactive: -4.7% |
| c1nnnn1CCn1cnnn1 | inactive: -8% |
| COc1ccc(N)c([N+](=O)[O-])c1[N+](=O)[O-] | inactive: 4.1% |
| Nc1ccc(CCCCOc2ccccc2)cc1 | inactive: 14.4% |
| CN(C)C1(CNC(=O)c2ccc(Cl)c(S(N)(=O)=O)c2)CCCCC1 | inactive: -9% |
| O=P(Nc1ccccn1)(c1ccc(Br)cc1)c1ccc(Br)cc1 | inactive: 9% |
| O=P(Nc1nc2ccccc2s1)(c1ccccc1)c1ccccc1 | inactive: -1.9% |
| C[C@H]1OP(=O)(Oc2ccccc2)[C@H](O)[C@H](O)[C@H]1N=[N+]=[N-] (stereo partly drawn) | inactive: -7.3% |
| O=[N+]([O-])c1ncn(CCn2cnc([N+](=O)[O-])n2)n1 | inactive: -6.7% |
| CC(=O)NC(SC(=S)N(C)C)C(Cl)(Cl)Cl (stereo not drawn) | inactive: -21.8% |
| O=[N+]([O-])c1ccc(O)c(/C=N/Nc2ccc([N+](=O)[O-])cc2[N+](=O)[O-])c1 | active: 61.3% |
| O=[As](O)(c1ccccc1)c1ccc(O)cc1 | inactive: -4% |
| C(Cc1nn[nH]n1)Cc1nn[nH]n1 | inactive: -11.6% |
| Nc1ccc([As](=O)(O)c2ccc([N+](=O)[O-])cc2)cc1 | inactive: -3.6% |
| O=C(OC1CN2CCC1CC2)c1cccc(Cl)c1 (stereo not drawn) | inactive: -7.1% |
| O=C(NC1CCS(=O)(=O)C1)NP(=S)(Oc1ccccc1)Oc1ccccc1 (stereo not drawn) | inactive: 2.4% |
| CCNC(=S)/N=C(\N)N[N+](=O)[O-] | inactive: -4.1% |
| c1ccc(-c2nn[nH]n2)c(-c2nn[nH]n2)c1 | inactive: -0.7% |
| Cc1ccc(NP(=O)(Oc2cccc(C)c2)Oc2cccc(C)c2)nc1 | inactive: -4.2% |
| O=P1(N(CCCl)CCCl)OCCC2CCCCN21 (stereo not drawn) | inactive: -1.8% |
| COC(=O)c1cc2c(s1)N=C(c1ccccc1)N(C)P2(=O)N1CCOCC1 (stereo not drawn) | inactive: -7.2% |
| Cc1ccc(OP(=O)(Nc2ccccn2)Oc2ccc(C)cc2)cc1 | inactive: 2.2% |
| CC(=O)NC(SC(=S)N(CC(C)C)CC(C)C)C(Cl)(Cl)Cl (stereo not drawn) | inactive: 3.9% |
| O=C(OC1CN2CCC1CC2)c1ccccc1 (stereo not drawn) | inactive: -2% |
| CCC(=O)N1C2C3N(C(=O)CC)C1C1N(C(=O)CC)C(C(N1C(=O)CC)N3C(=O)CC)N2C(=O)CC | inactive: -5.7% |

| Structure (SMILES) | inhibition |
| --- | --- |
| CC(NC(=O)COC(=O)C(O)(c1ccccc1)c1ccccc1)c1ccccc1 (stereo not drawn) | inactive: 3.8% |
| Cc1ccccc1OP(=O)(Nc1ccccn1)Oc1ccccc1C | inactive: 5.2% |
| O=c1c2cc([N+](=O)[O-])ccc2[nH]c2c([N+](=O)[O-])cc([N+](=O)[O-])cc12 | inactive: -5.3% |
| CN(C)C(=O)Oc1noc2ccccc12 | inactive: -8.5% |
| O=P1(Nc2nc3ccc(Cl)cc3s2)COc2ccccc2O1 (stereo not drawn) | inactive: -5.7% |
| CCOc1ccc(C2=NCC(CBr)S2)cc1 (stereo not drawn) | inactive: -2.8% |
| CCc1cc(O)c([N+](=O)[O-])c(C)c1[N+](=O)[O-] | inactive: -3.1% |
| CC(C)(C)C(=O)NC(Sc1ccccc1)C(Cl)(Cl)Cl (stereo not drawn) | inactive: 7.6% |
| CC(=O)c1ccc(N2CC2c2ccncc2)cc1 (stereo not drawn) | inactive: -4.1% |
| N#C/C(=C\c1ccc(N(CCBr)CCBr)cc1)C(N)=O | inactive: 0.8% |
| COC(=O)C1(C)COP(=O)(NCc2ccccc2)OC1 (stereo not drawn) | inactive: -5.5% |
| Cc1ccccc1CN(C)C(=O)COC(=O)C(O)(c1ccccc1)c1ccccc1 | inactive: 2.1% |
| C[C@H]1OP(=O)(Oc2ccccc2)C[C@@H]2O[C@@H]21 (stereo partly drawn) | inactive: -9.5% |
| C[C@@H]1C=CCP(=O)(Oc2ccccc2)O1 (stereo partly drawn) | inactive: -5.6% |
| CC(=O)Nc1ccc([As](=O)(O)O)c(O)c1 | inactive: -6.2% |
| CC(=O)Nc1ccc(Oc2c([N+](=O)[O-])cc([N+](=O)[O-])cc2[N+](=O)[O-])cc1 | inactive: -3.7% |
| NC(=O)c1cc([N+](=O)[O-])cc([N+](=O)[O-])c1N | inactive: -6.4% |
| CN(C(=O)Cc1ccc(Cl)c(Cl)c1)[C@H]1CCCC[C@H]1N1CCCC1 | inactive: -1.8% |
| Cc1ccc(N/C(=N/P(=O)(N2CCOCC2)N2CCOCC2)N2CCOCC2)cc1 | inactive: 0.9% |
| COc1ccccc1OP(=O)(Nc1ccc(C)cn1)Oc1ccccc1OC | inactive: -7.8% |
| Cc1ccc(OP(=O)(Nc2nccs2)Oc2ccc(C)cc2)cc1 | inactive: 1.9% |
| CN1CCCC(OC(=O)C(c2ccccc2)c2ccccc2)C1 (stereo not drawn) | inactive: -4.4% |
| Clc1ccc(Cl)c(NC2=NCC(CBr)S2)c1 (stereo not drawn) | inactive: 4.3% |
| Nc1cc(N)c2nonc2c1[N+](=O)[O-] | inactive: -5.5% |
| CC(C)CC(=O)NC(Sc1ccc(Cl)cc1)C(Cl)(Cl)Cl (stereo not drawn) | inactive: 4.1% |
| Oc1ccccc1CNc1ccccn1 | inactive: -3.2% |

| Structure (SMILES) | inhibition |
| --- | --- |
| O=C(NC(Sc1ccncn1)C(Cl)(Cl)Cl)c1ccccc1 (stereo not drawn) | inactive: -9.9% |
| O=[N+]([O-])C1C(O)C(O)C([N+](=O)[O-])C(O)C1O (stereo not drawn) | inactive: -2.5% |
| CC(=O)Nc1ccc([As](=O)(O)O)cc1 | inactive: -1.1% |
| O=C(O)c1ccccc1[As](=O)(O)O | inactive: 48.6% |
| CCCC1OP(N)(=O)OCC1CC (stereo not drawn) | inactive: -8.9% |
| O=P(Nc1nc2ccc(Cl)cc2s1)(c1ccccc1)c1ccccc1 | inactive: 12.9% |
| CN(C)P(=O)(N(C)C)n1c(Nc2ccccc2)nnc1-c1ccccc1 | inactive: 9.7% |
| Cc1cc(SC(NC(=O)c2ccc(F)cc2)C(Cl)(Cl)Cl)ncn1 (stereo not drawn) | inactive: -5.4% |
| CCOP(=O)(Nc1ccccc1)OCC | inactive: -3.4% |
| CN(C(=O)Cc1ccc(Cl)c(Cl)c1)[C@H]1CCCC[C@@H]1N1CCCC1 | inactive: 2.5% |
| Cc1ccc(NP(=O)(Oc2ccccc2F)Oc2ccccc2F)nc1 | inactive: -0.1% |
| CCN(N=Nc1nonc1N)c1nonc1N | inactive: -4.5% |
| Nc1cccc2ccc([As](=O)(O)O)cc12 | inactive: -1.4% |
| O=P1(N(CCCl)CCCl)OCCCS1 (stereo not drawn) | inactive: -10.1% |
| O=C(Nc1cc([As](=O)(O)O)ccc1O)c1ccccc1 | inactive: -6.4% |
| CC(C)(C)C(=O)NC(Sc1ccncn1)C(Cl)(Cl)Cl (stereo not drawn) | inactive: -1.2% |
| O=[N+]([O-])c1ncn(CCn2ncnc2[N+](=O)[O-])n1 | inactive: -3.8% |
| COC(=O)C1(C)COP(=O)(Nc2ccccc2)OC1 (stereo not drawn) | inactive: -3.9% |
| O=[N+]([O-])c1cccc(NC2=NCC(CBr)S2)c1 (stereo not drawn) | inactive: 9.9% |
| O=C(O)CNc1ccc([As](=O)(O)O)cc1 | inactive: -9.5% |
| COc1ccc(C2=NCC(CBr)S2)cc1 (stereo not drawn) | inactive: -2.6% |
| CC(=O)N1C2C3N(C(C)=O)C1C1N(C(C)=O)C(C(N1C(C)=O)N3C(C)=O)N2C(C)=O | inactive: -5.6% |
| O=[N+]([O-])c1cccc2n[nH]nc12 | inactive: -5% |
| Cc1ccc(NP(=O)(Oc2ccccc2)Oc2ccccc2)nc1 | inactive: 1.3% |
| O=[N+]([O-])c1cc([N+](=O)[O-])c(CCNc2ccccc2)c([N+](=O)[O-])c1 | inactive: -168% |
| CCc1nc2c(n1)c1c(non1O)c1c2no[n+]1[O-] | inactive: 2.9% |

| Structure (SMILES) | inhibition |
| --- | --- |
| Nc1ccc([As](=O)(O)c2ccc(N)cc2)cc1 | inactive: -11.6% |
| C[N+]1=C2C=CC=CC=C2SC12C([N+](=O)[O-])=CC([N+](=O)[O-])=C[C-]2[N+](=O)[O-] (stereo not drawn) | inactive: 6.3% |
| CCN(/C(=N/P(=O)(N1CCOCC1)N1CCOCC1)N1CCOCC1)c1ccc(OC)cc1 | inactive: -2.6% |
| CC(C)c1nc(Nc2ccccc2)n(P(=O)(N(C)C)N(C)C)n1 | inactive: -4.3% |
| CC(C)=N/N=C(\N)N[N+](=O)[O-] | inactive: -6.8% |
| CN(C)C(=O)OCCc1n(C)cc[n+]1C | inactive: -9.2% |
| CC1CCN(C(=O)Oc2c(Cl)cc(Cl)c3cccnc23)CC1 | inactive: 7.4% |
| c1cc(-c2nn[nH]n2)ccc1-c1nn[nH]n1 | inactive: -5.5% |
| COP1(=S)c2c(C)nn(CCC#N)c2N=C(c2ccc(F)cc2)N1C (stereo not drawn) | inactive: -5.6% |
| COC(=O)C1(C)COP(=O)(N2CCCC2)OC1 (stereo not drawn) | inactive: -1.4% |
| O=C(COc1ccccc1)OC1CN2CCC1CC2 (stereo not drawn) | inactive: -3.9% |
| O=C(Nc1ccncc1[N+](=O)[O-])c1ccc([N+](=O)[O-])cc1[N+](=O)[O-] | inactive: -1.9% |
| O=C(O)C(=O)c1ccc(N(CCCl)CCCl)cc1 | inactive: -7.5% |
| CCOC(=O)c1ccc(NC(=O)C(C)(CCl)SC)cc1 (stereo not drawn) | inactive: -6.2% |
| O=C(OC1CN2CCC1CC2)c1cccc([N+](=O)[O-])c1 (stereo not drawn) | inactive: -8.6% |
| CSc1ccc(Nc2c([N+](=O)[O-])cc([N+](=O)[O-])cc2[N+](=O)[O-])cc1 | inactive: 10.7% |
| CCC(C)N(CC(C)C)C(=S)SC(NC(C)=O)C(Cl)(Cl)Cl (stereo not drawn) | inactive: 15.3% |
| CC1CCNP(=O)(N(CCCl)CCCl)O1 (stereo not drawn) | inactive: -3.7% |
| O=C(O)C(O)c1ccc(N(CCCl)CCCl)cc1 (stereo not drawn) | inactive: -6.9% |
| CCOC(=O)Nc1ccc([As](=O)(O)O)c(O)c1 | inactive: -5.2% |
| CCCCOc1ccc(C(=O)NCC2(N3CCCCC3)CCCCC2)cc1OC | inactive: -3.6% |
| Cc1cc(SC(NC(=O)c2ccccc2)C(Cl)(Cl)Cl)nc(C(C)C)n1 (stereo not drawn) | inactive: -1.3% |
| COP(=O)(OC)N1CC1c1ccccc1 (stereo not drawn) | inactive: -6.6% |
| CCOC(=O)Nc1cccc([As](=O)(O)O)c1 | inactive: -0.4% |
| O=[N+]([O-])c1ccc(Nc2ccc(Oc3ccc([N+](=O)[O-])cc3[N+](=O)[O-])cc2)c([N+](=O)[O-])c1 | inactive: 31.3% |
